Measurements taken from PMC5791972 (2018).

Amino acid sequences for entries named in this document (tags omitted). A change or cut given only in a name is not applied to a line headed by its entry. Residues count along the entry.
UniProt P32241, 31-457: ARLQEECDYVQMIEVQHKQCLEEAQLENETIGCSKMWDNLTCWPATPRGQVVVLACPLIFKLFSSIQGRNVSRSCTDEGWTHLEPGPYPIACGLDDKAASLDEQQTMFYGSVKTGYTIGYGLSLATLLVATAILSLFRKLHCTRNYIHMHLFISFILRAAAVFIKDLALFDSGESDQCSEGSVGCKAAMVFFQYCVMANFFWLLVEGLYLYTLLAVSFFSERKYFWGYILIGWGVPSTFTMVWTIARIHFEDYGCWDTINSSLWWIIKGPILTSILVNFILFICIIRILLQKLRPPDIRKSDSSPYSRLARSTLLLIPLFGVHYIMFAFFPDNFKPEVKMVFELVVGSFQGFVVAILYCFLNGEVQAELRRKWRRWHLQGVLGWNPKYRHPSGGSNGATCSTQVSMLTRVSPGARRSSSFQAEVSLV
UniProt P37231: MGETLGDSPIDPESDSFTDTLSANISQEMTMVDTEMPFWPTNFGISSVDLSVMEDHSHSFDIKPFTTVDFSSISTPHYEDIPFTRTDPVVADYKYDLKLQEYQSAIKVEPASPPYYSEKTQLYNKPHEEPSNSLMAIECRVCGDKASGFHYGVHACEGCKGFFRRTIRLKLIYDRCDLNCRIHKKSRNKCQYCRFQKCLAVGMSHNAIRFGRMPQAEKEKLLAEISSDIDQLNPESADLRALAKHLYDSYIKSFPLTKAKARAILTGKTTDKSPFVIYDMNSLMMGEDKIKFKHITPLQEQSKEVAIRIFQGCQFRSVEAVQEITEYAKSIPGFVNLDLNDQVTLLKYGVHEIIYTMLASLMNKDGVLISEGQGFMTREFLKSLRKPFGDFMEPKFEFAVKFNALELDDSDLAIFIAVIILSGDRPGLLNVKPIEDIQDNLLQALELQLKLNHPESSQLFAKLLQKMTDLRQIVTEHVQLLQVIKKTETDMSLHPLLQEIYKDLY

Key:
Format in all cases: binding
VPAC1 (VIP1) (h) = VPAC1 (VIP1) (h) (Homo sapiens, UniProt P32241)
GABA transporter = GABA transporter (Rattus norvegicus, UniProt P23978)
PPARγ (h) = PPARγ (h) (Homo sapiens, UniProt P37231)

## CC[C@H](C)[C@H](NC(=O)[C@H](CO)NC(=O)[C@H](CC(N)=O)NC(=O)[C@H](CC(C)C)NC(=O)[C@H](Cc1ccc(O)cc1)NC(=O)[C@H](CCCCN)NC(=O)[C@H](CCCCN)NC(=O)[C@@H](NC(=O)[C@H](C)NC(=O)[C@H](CCSC)NC(=O)[C@H](CCC(N)=O)NC(=O)[C@H](CCCCN)NC(=O)[C@H](CCCNC(=N)N)NC(=O)[C@H](CC(C)C)NC(=O)[C@H](CCCNC(=N)N)NC(=O)[C@@H](NC(=O)[C@H](Cc1ccc(O)cc1)NC(=O)[C@H](CC(N)=O)NC(=O)[C@H](CC(=O)O)NC(=O)[C@@H](NC(=O)[C@H](Cc1ccccc1)NC(=O)[C@@H](NC(=O)[C@H](C)NC(=O)[C@H](CC(=O)O)NC(=O)[C@H](CO)NC(=O)[C@@H](N)Cc1c[nH]cn1)C(C)C)[C@@H](C)O)[C@@H](C)O)C(C)C)C(=O)N[C@@H](CC(C)C)C(=O)N[C@@H](CC(N)=O)C(N)=O [reference compound]
VPAC1 (VIP1) (h)
  nH: 0.9

## O=C(O)C1CCCNC1 (stereo not drawn) [reference compound]
GABA transporter
  nH: 0.8

## CN(CCOc1ccc(CC2SC(=O)NC2=O)cc1)c1ccccn1 (stereo not drawn) [reference compound]
PPARγ (h)
  nH: 0.9
